## scFv variants of Ab-14 (heavy chain) against a SARS-CoV-2 spike peptide

From the AlphaSeq antibody data of Engelhart et al. 2022 (doi:10.1038/s41597-022-01779-4), copy in the FLAb collection.

The target is the same throughout: PDVDLGDISGINAS, from the HR2 region of SARS-CoV-2 spike.

Each scFv is VH, the linker GGGGSGGGGSGGGGS, VL, as in the parent Ab-14, and differs from it in the CDRs of the heavy chain only.
VH: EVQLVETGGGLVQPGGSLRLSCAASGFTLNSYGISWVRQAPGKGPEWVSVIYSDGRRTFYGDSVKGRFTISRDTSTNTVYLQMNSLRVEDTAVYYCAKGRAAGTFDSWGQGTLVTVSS
VL: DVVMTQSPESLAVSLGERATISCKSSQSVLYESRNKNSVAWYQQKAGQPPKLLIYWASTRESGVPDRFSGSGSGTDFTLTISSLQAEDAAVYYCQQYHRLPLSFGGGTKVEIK

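AAYL49 was designed without a model: most single CDR substitutions and a random sample of double and triple ones. AlphaSeq pools MATa yeast showing the antibodies with MATalpha yeast showing the peptide. Pairs that bind mate more often; barcode pairs of the diploids are counted by sequencing. Each replicate has its own calibration line, from reference interactions of the BCL2 family. Each pool was mated in three replicate cultures.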

The parent's heavy chain CDRs are GFTLNSYGIS, VIYSDGRRTFYGDSVK, GRAAGTFDS; each variant's own CDRs replace them letter for letter.
Values are log10 of the apparent Kd in nM; lower means stronger binding.
"ND" marks a missing value. The strain was present, yet no cells mated with the target were sequenced in that replicate, which points to weak or no binding.
As a blank, each scFv also met three strains without target: over library AAYL49, 15% of these pairings were detected, typically at 4.06 and seldom below 2.83. Also given: how often the same scFv was detected with the empty control strains, with their mean in brackets.

CDR-H1,CDR-H2,CDR-H3,"log10 Kd, replicates",control signals
GFNLNSYGIS,VIYDDGRRTFNGDSVK,GRAAGTFDS,ND / 5.45 / 4.05,5/9 (4.74)
GFTLFSSGIS,VIQSDGRRTFYGDSVK,GRAAGTFDS,ND / ND / ND,4/9 (4.17)
GFTLNSYGIS,VIYSDGRRTFYGDIVK,GRAAGTFKV,ND / ND / ND,1/9 (3.31)
GFTLNSYGIS,VIYSDGRMTFYGDSVK,GEAAGTVDS,3.76 / ND / 3.23,3/9 (3.92)
GFTLFYYMIS,VIYSDGRRTFYGDSVK,GRAAGTFDS,5.79 / 5.04 / ND,2/9 (4.30)
GFTLNSYCIS,VIYSDGRRNFGGDSVK,GRAAGTFDS,ND / ND / ND,0/9
DFTLNSYGIS,VIYSDGRRKFYGDSVK,QRAAGTFDS,ND / ND / ND,2/9 (3.92)
GFTPESYGIS,VIYSDGRRTFYGFSVK,GRAAGTFDS,ND / ND / ND,0/9
GFTLNSYGIS,DIASDGRRTHYGDSVK,GRAAGTFDS,3.89 / 5.13 / 5.39,3/9 (3.75)
GFTLNPYGIS,VIYSDGRRTFYGDSVK,GRNAGTFDS,ND / ND / 2.61,1/9 (2.58)
GFTLFSYGIS,VIVSDGRRTFYGDSVK,GRAVGTFDS,4.63 / 3.35 / ND,6/9 (4.36)
GFTLNSYGIS,VIYSDGRRTFYGDIVK,GVAAGTFDS,3.14 / ND / ND,0/9
GFTLNSYGIS,VIYSDGRGTFFGDSVK,GRAAGTFDS,ND / ND / ND,3/9 (4.21)
GCTLNSYGIS,VIYSDGRRNFYGDGVK,GRAAGTFDS,ND / ND / ND,0/9
GFTLNSYGIS,VIYSWGRRTFYGDSVQ,GRAAWTFDS,3.83 / 4.06 / ND,1/9 (4.21)
GFTLNLYGIS,VIYSDGRRTFYGDMFK,GRAAGTFDS,2.70 / 2.44 / ND,0/9
GFTLNSYHIS,VIYSDGRRTFYGMSVK,GRATGTFDS,ND / ND / ND,1/9 (3.48)
GFTLNSYIIS,VIYLDGRRTFYGDSVK,GRGAGTFDS,ND / ND / ND,0/9
GFTLNSYGIS,VIYSDGDRQFYGDSVK,VRAAGTFDS,ND / ND / ND,0/9
GFTLNSYGIS,VVYSSGRKTFYGDSVK,GRAAGTFDS,ND / ND / ND,0/9
GFCDNSYGIS,VIYSDGKRTFYGDSVK,GRAAGTFDS,ND / ND / ND,0/9
GFTLNSYGIS,VIYHDGRRTFYGDSVK,GRAAGTFKQ,ND / ND / ND,1/9 (3.77)
GFTLTSYGIS,VIYSDGRRTFYGDSVQ,GRAAGTFDS,0.89 / 1.01 / 0.84,1/9 (5.18)
GFTLNSYGIS,VIYSDGQRTFYHDAVK,GRAAGTFDS,1.29 / 1.53 / 1.55,0/9
GFTLNSYGIS,VIYSDGRRTFYTDSVK,GRAFGDFDS,ND / ND / ND,0/9
GFTLNVYGIS,CIYSDGRPTFYGDSVK,GRAAGTFDS,ND / 4.33 / 2.59,0/9
GFTHNSYGIS,VIYSDGRRTFYGDSNK,GRARGTFDS,ND / 5.20 / ND,3/9 (3.89)
GDTLNSYGIS,VIYSDGLRTFYGDSVK,GSAAGTFDS,0.59 / 1.19 / 1.14,0/9
GFTLNSYGIM,VIYSWCRRTFYGDSVK,GRAAGTFDS,ND / ND / ND,0/9
GFTLNSYGIS,VIYSDNRRTFYGDSDK,GRATGTFDS,6.17 / 5.13 / 5.64,2/9 (4.27)
GFTLNSYGIS,VIYSDNRRTFYGDSVH,GRAAGTFLS,4.67 / 4.42 / 6.45,4/9 (4.82)
GFTSNSYGIS,VIYSDGRRTFYGHSVK,GRAAGTFTS,ND / ND / ND,3/9 (4.17)
GFCLNSVGIS,VIYSDGNRTFYGDSVK,GRAAGTFDS,ND / ND / ND,0/9
GFRLNSYGIS,VIVSDGRRTFYGTSVK,GRAAGTFDS,ND / 3.75 / ND,0/9
GFTLNSYGIS,YIYSDGRRTFYGDSVK,GRAAGTFDD,ND / ND / ND,0/9
GFTLNSYGIS,VIYSDGRFTFYGDSVK,GWAFGTFDS,3.11 / ND / 4.46,2/9 (3.64)
GFTLNSYGIS,MIYSWGRRTFYGDSVK,GRAEGTFDS,ND / ND / ND,2/9 (3.51)
GFTLNSYGIS,VIYSDGRNTFYGDSVK,GRAAGTHDS,ND / ND / ND,0/9
GFCLNSFGIS,VIYSDGRRTGYGDSVK,GRAAGTFDS,2.58 / 3.18 / 2.74,1/9 (3.81)
GITLNSYGIS,VIYSDGRRTCYGDSVK,GRAAGTFKS,ND / ND / ND,0/9
GFTLNSYGIS,VIYSHGRRSFYGDSVK,GHAAGTFDS,6.60 / ND / ND,6/9 (4.50)
GFTLNSYGIS,VIYSDGRRTTYGDSVK,GRPAGWFDS,2.66 / 2.21 / 2.63,2/9 (3.69)
GFTLNSWGIS,VIYSDGRRTFYGDSVK,GGAAGTFFS,3.07 / ND / 3.87,2/9 (4.49)
GFTSNSYGIS,VIYSDGERTFYGDSVK,ARAAGTFDS,ND / ND / ND,0/9
GFTLNSYGIS,VIVSDGRRTFYGDSVC,PRAAGTFDS,4.68 / 5.42 / 4.62,9/9 (4.81)

Excerpt, the final 6 entries:

| CDR-H1 | CDR-H2 | CDR-H3 | log10 Kd, replicates | control signals |
|---|---|---|---|---|
| GITLNSYGIS | VIYSDGRRTCYGDSVK | GRAAGTFKS | ND / ND / ND | 0/9 |
| GFTLNSYGIS | VIYSHGRRSFYGDSVK | GHAAGTFDS | 6.60 / ND / ND | 6/9 (4.50) |
| GFTLNSYGIS | VIYSDGRRTTYGDSVK | GRPAGWFDS | 2.66 / 2.21 / 2.63 | 2/9 (3.69) |
| GFTLNSWGIS | VIYSDGRRTFYGDSVK | GGAAGTFFS | 3.07 / ND / 3.87 | 2/9 (4.49) |
| GFTSNSYGIS | VIYSDGERTFYGDSVK | ARAAGTFDS | ND / ND / ND | 0/9 |
| GFTLNSYGIS | VIVSDGRRTFYGDSVC | PRAAGTFDS | 4.68 / 5.42 / 4.62 | 9/9 (4.81) |

Parent in this assay: reference entry 0.65, copy in this library 4.11 (one replicate of three).